Values quoted from earlier work as cited in patent publication US20190015484A1, “NICOTINE-DEGRADING ENZYMES FOR TREATING NICOTINE ADDICTION AND NICOTINE POISONING” (priority 2015, published 2019).

Conditions: mice, endogenous; cited from earlier work

Q: With “mouse serum albumin: endogenous mouse serum albumin” as the substance, how does the half-life read?
A: The half-life was 35 to 40 h.
